The results in this text go back to ChEMBL document CHEMBL1132454 (J Med Chem, 1999).

Amino acid sequences for entries named in this document (tags omitted).
UniProt P31652, whole entry: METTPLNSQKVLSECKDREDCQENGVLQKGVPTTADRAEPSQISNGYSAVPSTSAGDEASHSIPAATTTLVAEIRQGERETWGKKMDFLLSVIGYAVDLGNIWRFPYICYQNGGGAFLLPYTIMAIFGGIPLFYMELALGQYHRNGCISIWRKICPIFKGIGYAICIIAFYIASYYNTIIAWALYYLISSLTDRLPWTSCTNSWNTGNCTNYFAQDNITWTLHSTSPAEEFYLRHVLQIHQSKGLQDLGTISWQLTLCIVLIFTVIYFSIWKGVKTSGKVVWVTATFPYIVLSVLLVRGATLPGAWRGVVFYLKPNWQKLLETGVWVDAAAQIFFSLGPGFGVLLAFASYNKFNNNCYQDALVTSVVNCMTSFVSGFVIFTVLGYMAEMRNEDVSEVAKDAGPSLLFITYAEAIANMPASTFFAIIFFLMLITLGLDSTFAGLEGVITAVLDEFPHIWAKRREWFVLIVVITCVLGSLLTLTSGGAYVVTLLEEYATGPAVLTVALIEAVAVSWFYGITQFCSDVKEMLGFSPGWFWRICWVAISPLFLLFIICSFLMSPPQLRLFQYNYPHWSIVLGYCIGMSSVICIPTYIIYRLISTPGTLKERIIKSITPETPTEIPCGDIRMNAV
UniProt Q9WTR4, whole entry: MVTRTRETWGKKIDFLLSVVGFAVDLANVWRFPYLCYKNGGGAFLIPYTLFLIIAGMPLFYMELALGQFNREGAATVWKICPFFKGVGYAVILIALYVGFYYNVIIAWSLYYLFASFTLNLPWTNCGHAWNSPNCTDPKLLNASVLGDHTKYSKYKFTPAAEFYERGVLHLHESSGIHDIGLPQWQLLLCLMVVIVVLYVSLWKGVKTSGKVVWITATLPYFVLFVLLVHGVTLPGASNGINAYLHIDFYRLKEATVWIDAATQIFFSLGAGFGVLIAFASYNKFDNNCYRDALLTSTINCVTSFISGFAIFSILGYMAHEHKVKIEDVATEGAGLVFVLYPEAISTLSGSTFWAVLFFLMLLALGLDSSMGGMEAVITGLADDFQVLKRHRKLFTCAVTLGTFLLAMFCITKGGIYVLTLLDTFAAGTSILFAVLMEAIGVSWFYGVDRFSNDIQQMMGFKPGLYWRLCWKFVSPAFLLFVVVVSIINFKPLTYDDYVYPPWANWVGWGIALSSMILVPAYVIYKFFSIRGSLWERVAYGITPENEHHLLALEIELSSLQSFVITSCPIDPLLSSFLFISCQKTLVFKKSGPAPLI

Assay [1] deals with Sodium-dependent serotonin transporter (Rattus norvegicus, UniProt P31652). Briefly: Binding affinity against Serotonin transporter in male Sprague-Dawley rats using [3H]paroxetine ligand. Put shortly: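 Male Sprague-Dawley rat midbrain membranes in 50 mM Tris, 120 mM NaCl, 5 mM KCl, pH 7.4; 1.5 mg original wet tissue per tube. Incubation with 0.2 nM [3H]paroxetine for 90 min at room temperature. Nonspecific binding with 1 μM citalopram. Filtration and scintillation counting; Ki from at least three experiments in triplicate.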

For assay [2], the target named is Norepinephrine transporter (Rattus norvegicus, UniProt Q9WTR4). Briefly: The compound was tested for binding affinity nisoxatine ligand. The method, boiled down: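 Male Sprague-Dawley rat frontal cortex membranes in 50 mM Tris, 120 mM NaCl, 5 mM KCl, pH 7.4; 8 mg original wet tissue per tube. Incubation with 0.5 nM [3H]nisoxetine for 60 min at 0-4 °C. Nonspecific binding with 1 μM desipramine. Filtration and scintillation counting; Ki from at least three experiments in triplicate.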

As usually defined, the Ki is the dissociation constant of the complex between target and ligand, obtained from inhibition or displacement. On to `COC(=O)[C@H]1[C@@H](OC(=O)c2ccccc2)C[C@@H]2CC[C@H]1N2C` [COCAINE], for which the affinity in assay [1] corresponds to a Ki of 172 nM. Regarding `Fc1ccc(C(OCCN2CCN(CCCc3ccccc3)CC2)c2ccc(F)cc2)cc1` [VANOXERINE], the Ki was determined as 1270 nM in assay [2] and 24.1 nM in assay [1].
